How the values were obtained:
Human macrophages = test: Viability, CAR expression and M1/M2 markers of HER2 CAR mRNA-electroporated macrophages treated with interferons; type: cell-based
Protocol: (§1) Human macrophages were electroporated with HER2 CAR mRNA comprising m6AGCap1 and PsU modifications. Cells were cultured with cytokines that induce an M1 phenotype such as IFN-alpha, IFN-beta, IFN-gamma, IFN-gamma plus lipopolysaccharide (LPS), TNF-alpha, IL-6 or a STING ligand (STING-L) for up to 48 hours and then cytokines were washed off and fresh media was added. CAR expression and M1 marker expression were measured on days 2 and 7 after transfection. Fluorescent labeled HER2+ breast cancer cells (CRL2351) were co-cultured with HER2 CAR macrophages two days after the macrophages were transfected. Cancer cell growth was monitored via its fluorescence on an Incucyte® live imaging microscope every four hours. The Effector (CAR macrophage) to Target (cancer cell) ratio was 5:1.
(§2) Five different mRNA modifications were also tested to determine if interferon treatment differentially affected macrophages transfected with mRNA comprising different modifications. Human macrophages were electroporated with HER2 CAR mRNA comprising different mRNA modifications. CAR expression and M1 markers were detected by Flow Cytometry (Attune) on day four after electroporation. Day 4 CAR macrophage cells were then co-cultured with a Nuc-Light labeled, HER2+ breast cancer cell line (CRL2351) at an Effector (CAR macrophage) to Target (cancer cell) ratio of 5:1. Cancer cell growth was monitored via its fluorescence on an Incucyte® live imaging microscope every four hours.
To further evaluate the impact of IFN-β on CAR persistence, human macrophages electroporated with m6AGCap1/PsU mRNA encoding a HER2 CAR were evaluated on day 2 and day 7.
In order to validate the effect of IFN-β treatment on improved CAR expression, and to optimize the IFN-β concentration, macrophages transfected with M6AGCap1/PsU modified mRNA were treated with 0, 3, 10, 30, or 100 ng/mL IFN-β for 4 hours and the viability, CAR percentage, and CAR MFI were evaluated on day 4 and day 7 post electroporation.
Given that macrophage phenotype is considered plastic, and immunosuppressive cytokines such as IL-10 are known to induce an M2 phenotype, the impact of IL-10 treatment on IFN-β treated or untreated HER2 CAR mRNA transfected macrophages was evaluated.
Additional studies were performed to determine if treatment with interferons could further improve CAR mRNA persistence in macrophages and if CAR macrophage functionality could be extended. Human macrophages were electroporated with 300 nM CAR mRNA comprising m6AGCap1 and PsU modifications. Cells were cultured with 20 ng/mL IFNs for 24 hours and then the cells were washed to remove cytokines. CAR expression was detected by Flow Cytometry (Attune) on day 2 after transfection. Cells were then co-cultured with a Nuc-Light labeled, HER2+ breast cancer cell line (CRL2351) at the Effector to Target ratio of 3:1. Cancer cell growth was monitored via its fluorescence on an Incucyte® live imaging microscope. CAR expression and M1 markers in macrophages were detected by Flow Cytometry (Attune) on day 7 after transfection.

[1] = test system: HER2+ breast cancer cells (CRL2351); test: Cytokine secretion of interferon-treated HER2 CAR macrophages co-cultured with cancer cells (MSD); type: cell-based, human; settings: E:T 3:1, supernatant at 48 hours; FIG. 126
Protocol: To evaluate whether interferon treatment of macrophages improved other anti-tumor functions, the cytokine secretion of interferon treated or untreated mRNA transfected HER2 CAR macrophages after co-culture with HER2+ breast cancer cells was evaluated. Human macrophages were electroporated with 150 nM HER2 CAR mRNA comprising m6AGCap1 and PsU modifications. HER2+ breast cancer cells (CRL2351) were co-cultured with CAR macrophages after the macrophages were transfected with the CAR mRNA at an Effector (CAR macrophage) to Target (cancer cell) ratio of 3:1. Supernatant was collected 48 hours after the cancer cells and macrophages were co-cultured and cytokine levels were measured using a Meso Scale Discovery (MSD) instrument.

[2] = test system: HER2+ breast cancer cell line (CRL2351); test: Cancer cell killing by HER2 CAR mRNA macrophages treated with interferons (Incucyte); type: cell-based, human
Protocol: as §1, §2
To evaluate the anti-tumor function of macrophages transfected with mRNA encoding a HER2 CAR with or without priming with IFN-β, untransduced (UTD) or CAR macrophages were primed with 0, 3, 10, 30, or 100 ng/mL IFN-β for 4 hours or 20 hours. These effector cells were then co-cultured with the HER2+ breast cancer cell line CRL2351-GFP at an effector to target ratio of 3:1 or 1.5:1 and anti-tumor activity was measured based on GFP expression using an Incucyte® live imaging microscope. […] To evaluate whether the improved mRNA-transfected CAR macrophage anti-tumor effect was universal to all interferons or only interferon beta, macrophages electroporated with M6AGCap1/PsU mRNA were treated with IFN-alpha, beta, or gamma and evaluated for their cancer cell killing ability.
Additional studies were performed to determine if treatment with interferons could further improve CAR mRNA persistence in macrophages and if CAR macrophage functionality could be extended. […] CAR expression was detected by Flow Cytometry (Attune) on day 2 after transfection. […] Cancer cell growth was monitored via its fluorescence on an Incucyte® live imaging microscope. CAR expression and M1 markers in macrophages were detected by Flow Cytometry (Attune) on day 7 after transfection.

B1: IFN-β: interferon cytokine that induces an M1 phenotype (protein, UniProt P01574 22-187, looked up)
Interferon beta: MSYNLLGFLQRSSNFQCQKLLWQLNGRLEYCLKDRMNFDIPEEIKQLQQFQKEDAALTIYEMLQNIFAIFRQDSSSTGWNETIVENLLANVYHQINHLKTVLEEKLEKEDFTRGKLMSSLHLKRYYGRILHYLKAKEYSHCAWTIVRVEILRNFYFINRLTGYLRN
Human macrophages; 0-100 ng/mL, FIG. 123B
  induction of M1 markers CD80, CD86, and HLA-DR: dose-dependent
Human macrophages; 48 hours and 7 days post-treatment with IL-10
  M2 marker CD163 after IL-10: did not express the M2 marker CD163
Human macrophages; 48 hours and 7 days post-treatment with IL-10, FIGS. 124A-B
  response of treated CAR macrophages to IL-10: resisted the effects of IL-10
Human macrophages; FIG. 121E
  M1 phenotype (based on CD86 expression): induction of an M1 phenotype
  persistence of M1 phenotype post treatment: at least 7 days
  strength of M1 phenotype among interferons: strongest M1 phenotype of the interferons evaluated
Human macrophages; FIG. 121F
  M2 markers (based on CD163 expression): reduction of M2 markers
[1]
  secretion of IL-6, IL-8 and TNFα: increased secretion of the cytokines IL-6, IL-8 and TNFα
[2]; 7 days post-electroporation, FIG. 128B
  level of cancer killing among treated CAR macrophages: highest level of cancer killing
[2]; FIG. 125B
  anti-tumor activity with mRNAs comprising different modifications: improved anti-tumor activity for all CAR macrophages except those transfected with 5moU mRNA
[2]; M6AGCap1/PsU mRNA, FIG. 125C
  cancer cell killing compared among interferons: best cancer cell killing, with a greater effect than IFN-α or IFN-γ
[2]; primed 0-100 ng/mL for 4 or 20 hours, E:T 3:1 or 1.5:1, FIG. 125A
  ability of CAR macrophages to kill cancer cells: improved ability for CAR macrophages to kill cancer cells

— US12600796B2, “Constructs for chimeric antigen receptors” (Carisma Therapeutics Inc., priority 2020, dated 2026)
